We go through 22 compounds from PubChem BioAssay AID651661 (Broad Institute, 2012).

This is a selection; strong and weak results do not stand in their true shares. Some tests of the compounds listed are not included; inactive here does not mean inactive elsewhere. Activity calls are given as the source filed them.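 The calls were made as follows: active = mean inhibition of at least 50% after viability correction, with every replicate also passing that limit; inconclusive = mean reaches 50% but only one of two replicates passes; inactive = the rest.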

This test in a line: EWS/Fli-driven NR0B1 reporter inhibitors, primary screen, A673 cells, NR0B1 luciferase, luminescence, MLPCN library (AID 651661).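 Also: firefly luciferase signal divided by Alamar Blue viability fluorescence both relative to DMSO.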 The following applies: viability-normalised, at 12.6 µM, hits give high values.
In the case of `CC(C)Oc1ccc(C(=O)NCC2(N(C)C)CCCCC2)cc1`, the inhibition was inactive: -8.77%.

On to `O=C(OCCN1CCCC1)C(O)(c1ccccc1)c1ccccc1`, for which the inhibition was inactive: 3.48%.

In the case of `COc1ccc(Br)c(C(=O)NCC2(N3CCCCC3)CCCCC2)c1`, the inhibition was inactive: -2.33%.

Turning to `C=C(C)C#CC(O)(C(=O)OC1CCN(C)CC1)c1ccccc1` (configuration not stated), the inhibition was inactive: 3.91%.

Turning to `COc1cc(C(=O)NCC2(N(C)C)CCCCC2)c([N+](=O)[O-])cc1OC`, the inhibition was inactive: -2.96%.

As to `CN(C)C1(CNC(=O)c2ccc(Br)cc2)CCCCC1`, the inhibition is inactive: 12.7%.

For the compound `O=C(NCC1(N2CCCCC2)CCCCC1)c1cccc(Cl)c1`, the inhibition is inactive: -5.61%.

Take `COc1cccc(C(=O)NCC2(N3CCCCC3)CCCCC2)c1`: the inhibition is inactive: -5.13%.

Regarding `COc1ccc(Cl)cc1C(=O)NCC1(N(C)C)CCCCC1`, the inhibition was inactive: 1.2%.

Regarding `Cc1ccccc1C(=O)NCC1(N2CCCCC2)CCCCC1`, the inhibition was inactive: -2.56%.

Consider `CN(C)c1ccc(C(=O)NCC2(N(C)C)CCCCC2)cc1`, for which the inhibition is inactive: -0.708%.

For `CN(C)C1CCCC1OC(=O)C(O)(c1ccccc1)c1ccccc1` (configuration not stated), the inhibition was inactive: -8.57%.

`Cc1cc(C(=O)NCC2(N3CCCCC3)CCCCC2)ccc1[N+](=O)[O-]`: the inhibition was inactive: -12.5%.

Take `O=C(NCC1(N2CCCCC2)CCCCC1)c1cccc(Br)c1`: the inhibition is inactive: -13.8%.

Regarding `COc1ccc(C(=O)NCC2(N(C)C)CCCCC2)cc1`, the inhibition is inactive: 1.16%.

Take `C=CCN1CCN(CCOC(=O)C(O)(c2ccccc2)c2ccccc2)CC1`: the inhibition is inactive: 1.05%.

Consider `O=C(NCC1(N2CCCCC2)CCCCC1)c1cc(F)c(F)cc1Cl`, for which the inhibition is inactive: -0.197%.

With `CN1[C@@H]2CC[C@H]1CC(OC(=O)C(O)(c1ccccc1)c1ccccc1)C2` (some centres not stated), the inhibition is inactive: 1.82%.

Consider `O=C(NCC1(N2CCCCC2)CCCCC1)c1cc([N+](=O)[O-])ccc1Cl`, for which the inhibition was inactive: 4.3%.

As to `Cc1ccc(C(=O)NCC2(N3CCCCC3)CCCCC2)cc1`, the inhibition was inactive: 4.85%.

Consider `CCN(CC)CC(C)C(C)OC(=O)C(O)(c1ccccc1)c1ccccc1` (configuration not stated), for which the inhibition is inactive: 4.98%.

`COc1cc(SC)ccc1C(=O)NCC1(N(C)C)CCCCC1`: the inhibition was inactive: 6.46%.
